The values below come from US12085575B2, “Compositions and methods for detecting proteinopathies” (BOARD OF SUPERVISORS OF LOUISIANA STATE UNIVERSITY AND …, priority 2011, dated 2024).

The subject of the experiment is ISG15 pathway. Description: ISG15 immunoblot of urine-derived renal cells treated with IFNβ. Format: cell-based, human. The note with it: renal cells from normal children, IFNβ 24 h. The source says:
We have obtained human de-identified urine samples from normal children, and isolated renal cells as described in (40). […] Also, similar to normal cells and tissues, these renal cells minimally express ISG15 (FIG. 41C, lanes 1 and 3). However, the ISG15 pathway is functional and induced in response to IFNβ (FIG. 41C, lanes 2 and 4). These cells also retained a normal karyotype in culture (FIG. 41D).
(In western blotting, separated proteins are transferred to a membrane and probed.)

B1: IFNβ: interferon used to induce the ISG15 pathway in renal cells (protein, UniProt P01574 22-187, looked up)
Interferon beta: MSYNLLGFLQRSSNFQCQKLLWQLNGRLEYCLKDRMNFDIPEEIKQLQQFQKEDAALTIYEMLQNIFAIFRQDSSSTGWNETIVENLLANVYHQINHLKTVLEEKLEKEDFTRGKLMSSLHLKRYYGRILHYLKAKEYSHCAWTIVRVEILRNFYFINRLTGYLRN
Regarding B1, the ISG15 pathway expression result is given as “induced”.
